# Reference: PubChem BioAssay AID602438 (Sanford-Burnham Center for Chemical Genomics, 2012)
# Chains of the proteins cited; added tags and fusions are not shown.
# UniProt O14786, whole entry: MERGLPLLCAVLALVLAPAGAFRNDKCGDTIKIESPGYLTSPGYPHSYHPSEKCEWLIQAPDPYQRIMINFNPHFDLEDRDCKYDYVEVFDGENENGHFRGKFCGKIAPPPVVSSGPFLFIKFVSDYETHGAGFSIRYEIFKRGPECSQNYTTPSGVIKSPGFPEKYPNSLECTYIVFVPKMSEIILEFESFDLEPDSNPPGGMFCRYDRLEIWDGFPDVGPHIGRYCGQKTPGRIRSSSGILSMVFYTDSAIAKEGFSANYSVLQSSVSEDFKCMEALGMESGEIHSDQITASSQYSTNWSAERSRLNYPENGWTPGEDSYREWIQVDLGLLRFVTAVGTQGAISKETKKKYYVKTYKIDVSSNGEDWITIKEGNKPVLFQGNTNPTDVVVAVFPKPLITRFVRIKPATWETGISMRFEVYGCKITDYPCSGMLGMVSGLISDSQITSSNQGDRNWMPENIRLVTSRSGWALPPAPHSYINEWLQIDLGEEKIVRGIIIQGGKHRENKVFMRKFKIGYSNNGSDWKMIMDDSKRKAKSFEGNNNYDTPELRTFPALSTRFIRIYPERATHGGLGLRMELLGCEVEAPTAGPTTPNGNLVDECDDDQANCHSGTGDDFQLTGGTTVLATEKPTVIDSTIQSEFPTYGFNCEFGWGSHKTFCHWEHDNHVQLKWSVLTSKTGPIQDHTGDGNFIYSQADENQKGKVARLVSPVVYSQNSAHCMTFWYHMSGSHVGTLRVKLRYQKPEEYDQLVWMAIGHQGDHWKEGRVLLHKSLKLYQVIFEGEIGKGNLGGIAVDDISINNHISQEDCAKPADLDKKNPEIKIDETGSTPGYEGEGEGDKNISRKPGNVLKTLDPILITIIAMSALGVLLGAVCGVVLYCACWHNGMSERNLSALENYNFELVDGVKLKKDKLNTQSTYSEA
# The entries are a selection whose mix differs from that of the whole data set. Active and inactive are the calls of the source.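 The calls were made as follows: active = inhibition or corrected inhibition above about 18%, plus a signal ratio from 0.5 to 1.5 (limit read from the data, passing the limit was not always enough); inactive = the rest.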
# Molecular target: Neuropilin-1 (Homo sapiens) (UniProt O14786)
# Test: NRP-1/CendR peptide interaction modulators – biochemical, fluorescence polarization, uHTS, primary screen (AID 602438)
# Details: FAM-RPARPAR peptide binding to NRP-1, fluorescence polarization; at 25 µM; stronger effect = higher value
row,SMILES,inhibition
1,Cc1ccccc1NC1(C#N)CCN(Cc2ccccc2)CC1,inactive: 5.9%
2,CC(C)(C)n1nnnc1C(c1ccnc2ccccc12)N1CCC(n2c(=O)[nH]c3ccccc32)CC1 (stereo not drawn),inactive: 11.2%
3,COc1ccc(C(c2nnnn2C2CCCCC2)N2CCC(n3c(=O)[nH]c4ccccc43)CC2)cc1 (stereo not drawn),inactive: 13.1%
4,CCN1CCC(Nc2cccc(F)c2)CC1,inactive: -11.4%
5,O=C(NCC1(N2CCCCC2)CCCCC1)c1ccco1,inactive: -6%
6,Cn1c(=O)[nH]cc(N(CCCl)CCCl)c1=O,inactive: 3.2%
7,CN(C)c1ccc(C(=O)NCC2(N3CCCCC3)CCCCC2)cc1,inactive: -1.2%
8,O=c1[nH]c2ccccc2n1C1CCN(C(c2ccnc3ccccc23)c2nnnn2C2CCCCC2)CC1 (stereo not drawn),inactive: -3.7%
9,COc1cc(OC)cc(C(=O)NCC2(N3CCCCC3)CCCCC2)c1,inactive: -11.3%
10,CC(=O)N(c1ccccc1)C1CCNCC1,inactive: 9.4%
11,COc1cccc(C(c2nnnn2C2CCCCC2)N2CCC(n3c(=O)[nH]c4ccccc43)CC2)c1OC (stereo not drawn),inactive: 7.4%
12,CCC(c1nnnn1C1CCCCC1)N1CCC(n2c(=O)[nH]c3ccccc32)CC1 (stereo not drawn),inactive: -9.2%
13,Cc1ccc(NC2(C#N)CCN(Cc3ccccc3)CC2)cc1,inactive: 8%
14,Cc1ccc(C(=O)NCC2(N3CCCCC3)CCCCC2)o1,inactive: -3%
15,Fc1ccccc1NC1CCN(Cc2ccccc2)CC1,inactive: 7%
16,CCC(CO)(C(=O)OC1CN2CCC1CC2)c1ccccc1 (stereo not drawn),inactive: -10.4%
17,COc1cc(OC)cc(C(=O)NCC2(N3CCOCC3)CCCCC2)c1,inactive: 11.7%
18,COc1cccc(C(c2nnnn2C2CCCC2)N2CCC(n3c(=O)[nH]c4ccccc43)CC2)c1OC (stereo not drawn),inactive: 3.3%
19,COc1cccc(C(=O)N(c2cc(C)cc(C)c2)C2CCN(C(=O)OC(C)(C)C)CC2)c1,inactive: -4.2%
20,CN1CCC(Nc2ccc(Cl)cc2)CC1,inactive: 1.5%
21,CCOc1ncccc1C(=O)NCC1(N2CCOCC2)CCCCC1,inactive: -2.9%
22,CN1CCC(Nc2ccc(F)c(Cl)c2)CC1,inactive: 4.3%

row,SMILES,inhibition
1,CCCOc1ccc(C(=O)NCC2(N(C)C)CCCCC2)cc1,inactive: 2.1%
2,O=c1[nH]c2ccccc2n1C1CCN(C(c2cc3ccccc3o2)c2nnnn2C2CCCC2)CC1 (stereo not drawn),inactive: 9.1%
3,CC(C)(C)OC(=O)N1CCC(Nc2ccccc2)CC1,inactive: 16.1%
4,O=C(O)C1(Nc2ccccc2)CCN(Cc2ccccc2)CC1,inactive: -0.8%
5,NN(c1ccccc1)C1CCN(CCc2ccccc2)CC1,inactive: -7.4%
6,N/C(=N\O)c1c(N)no[n+]1[O-],inactive: -3%
7,COc1cccc(C(c2nnnn2C(C)(C)C)N2CCC(n3c(=O)[nH]c4ccccc43)CC2)c1OC (stereo not drawn),inactive: -9.2%
8,CCOC(=O)N1CCC(Nc2ccc(C)cc2)CC1,inactive: 8%
9,CCCCn1nnnc1C(c1cccc(OC)c1OC)N1CCC(n2c(=O)[nH]c3ccccc32)CC1 (stereo not drawn),inactive: 12.9%
10,O=C(OC1CN2CCC1CC2)C1c2ccccc2C=Cc2ccccc21 (stereo not drawn),inactive: 3%
11,O=c1[nH]c2ccccc2n1C1CCN(C(c2cccs2)c2nnnn2C2CCCC2)CC1 (stereo not drawn),inactive: 2.8%
12,O=C(NCC1(N2CCOCC2)CCCCC1)c1cc(Br)ccc1Cl,inactive: 2.2%
13,CCCCn1nnnc1C(c1ccccc1)N1CCC(n2c(=O)[nH]c3ccccc32)CC1 (stereo not drawn),inactive: 12.8%
14,COc1cc(C(=O)NCC2(N3CCOCC3)CCCCC2)cc(OC)c1C,inactive: 9.7%
15,COc1ccc(C(=O)NCC2(N3CCOCC3)CCCCC2)cc1OC,inactive: 3.9%
16,O=c1[nH]c2ccccc2n1C1CCN(C(c2ccnc3ccccc23)c2nnnn2C2CCCC2)CC1 (stereo not drawn),inactive: -0.1%
17,O=c1[nH]c2ccccc2n1C1CCN(C(c2cccs2)c2nnnn2C2CCCCC2)CC1 (stereo not drawn),inactive: -9.7%
18,c1ccc(CN2CCC(Nc3ccccc3)CC2)cc1,inactive: 2.5%
19,O=c1[nH]c2ccccc2n1C1CCN(C(c2ccccc2)c2nnnn2C2CCCC2)CC1 (stereo not drawn),inactive: 2%
20,CCCN1CCC(Nc2cc(OC)cc(OC)c2)CC1,inactive: 16%
21,Cc1cc(N(CCCl)CCCl)ccc1C=O,inactive: 15.6%
22,CN(C)C1(CNC(=O)c2cccc(C#N)c2)CCCCC1,inactive: 8%

row,SMILES,inhibition
1,CC(C)(C)n1nnnc1C(c1cccc2ccccc12)N1CCC(n2c(=O)[nH]c3ccccc32)CC1 (stereo not drawn),inactive: 2.5%
2,CC(C)(C)OC(=O)N1CCC(N(C(=O)c2ccccc2)c2ccc(Cl)cc2)CC1,inactive: 6.5%
3,N#Cc1ccc(C(=O)NCC2(N3CCCCC3)CCCCC2)cc1,inactive: 14.8%
4,O=C(NCC1(N2CCCCC2)CCCCC1)c1cccc(C(F)(F)F)c1,inactive: -1.9%
5,CCCCn1nnnc1C(c1cccc2ccccc12)N1CCC(n2c(=O)[nH]c3ccccc32)CC1 (stereo not drawn),inactive: -1.7%
6,CN1CCN(CCOC(=O)C(O)(c2ccccc2)c2ccccc2)CC1,inactive: -5%
7,COc1ccc(NC2CCN(C(=O)OC(C)(C)C)CC2)cc1,inactive: -4%
8,CC(C)c1ccc(C(=O)NCC2(N3CCOCC3)CCCCC2)cc1,inactive: 6.3%
9,COc1cc(C(=O)NCC2(N3CCCCC3)CCCCC2)ccc1OC(F)F,inactive: -7.5%
10,O=C(NCC1(N2CCOCC2)CCCCC1)c1cc(=O)[nH]c2ccccc12,inactive: -9%
11,CC(C)(C)n1nnnc1C(c1ccccc1OC(F)(F)F)N1CCC(n2c(=O)[nH]c3ccccc32)CC1 (stereo not drawn),inactive: 5.2%
12,O=C(NCC1(N2CCCCC2)CCCCC1)c1ccc(OC(F)F)cc1,inactive: 0.7%
13,O=C(NCC1(N2CCCCC2)CCCCC1)c1cccc([N+](=O)[O-])c1,inactive: 1.2%
14,CSc1ccc(C(=O)NCC2(N3CCOCC3)CCCCC2)cc1,inactive: -3%
15,CCN1CCC(Nc2ccc(Cl)cc2)CC1,inactive: 10.6%
16,N#CC1(Nc2ccccc2)CCN(CCc2ccccc2)CC1,inactive: 7.3%
17,O=c1[nH]c2ccccc2n1C1CCN(C(c2ccccc2OC(F)(F)F)c2nnnn2C2CCCC2)CC1 (stereo not drawn),inactive: -0.4%
18,O=C(NCC1(N2CCCCC2)CCCCC1)c1cncc(Br)c1,inactive: 10.6%
19,CN1CCC(Nc2cccc(F)c2)CC1,inactive: -1.8%
20,Cc1ccc(C(=O)NCC2(N(C)C)CCCCC2)o1,inactive: 7.6%
21,CCCOc1ccc(C(=O)NCC2(N(C)C)CCCCC2)cc1OC,inactive: -4.8%
22,COc1ccc(C(c2nnnn2C2CCCC2)N2CCC(n3c(=O)[nH]c4ccccc43)CC2)cc1 (stereo not drawn),inactive: 16.2%

row,SMILES,inhibition
1,COc1ccc(CN(CCCl)CCCl)cc1Cl,inactive: -11.7%
2,CN(C)c1cccc(C(=O)NCC2(N3CCCCC3)CCCCC2)c1,inactive: 1.4%
3,CCCCn1nnnc1C(c1ccccc1OC(F)(F)F)N1CCC(n2c(=O)[nH]c3ccccc32)CC1 (stereo not drawn),inactive: 6.4%
4,CC(C)c1ccc(NC2CCN(C(=O)OC(C)(C)C)CC2)cc1,inactive: 1.2%
5,CCCCn1nnnc1C(c1ccnc2ccccc12)N1CCC(n2c(=O)[nH]c3ccccc32)CC1 (stereo not drawn),inactive: 1.9%
6,COc1cc(OC)c(C(=O)NCC2(N(C)C)CCCCC2)cc1OC,inactive: -1.3%
7,CCC(c1nnnn1C(C)(C)C)N1CCC(n2c(=O)[nH]c3ccccc32)CC1 (stereo not drawn),inactive: -2.8%
8,O=C(NCC1(N2CCOCC2)CCCCC1)c1cc(F)c(F)cc1Cl,inactive: -3.3%
9,O=C(NCC1(N2CCOCC2)CCCCC1)c1cc2ccccc2o1,inactive: -4.8%
10,O=c1[nH]c2ccccc2n1C1CCN(C(c2ccccc2OC(F)(F)F)c2nnnn2C2CCCCC2)CC1 (stereo not drawn),inactive: 5.7%
11,O=C(NCC1(N2CCCCC2)CCCCC1)c1ccc(Cl)nc1,inactive: 1.2%
12,Cc1cc(C)cc(N(C(=O)c2ccccc2)C2CCN(C(=O)OC(C)(C)C)CC2)c1,inactive: -11.2%
13,CCOC(=O)N1CCC(Nc2ccc(OC)cc2)CC1,inactive: 11.6%
14,CCCCn1nnnc1C(c1ccc(OC)cc1)N1CCC(n2c(=O)[nH]c3ccccc32)CC1 (stereo not drawn),inactive: 15.9%
15,O=C(OC1CN2CCC1CC2)C1c2ccccc2Oc2ccccc21 (stereo not drawn),inactive: 15.4%
16,O=c1[nH]c2ccccc2n1C1CCN(C(c2cc3ccccc3o2)c2nnnn2C2CCCCC2)CC1 (stereo not drawn),inactive: 1.5%
17,O=C(NCC1(N2CCCCC2)CCCCC1)c1ccc(Cl)s1,inactive: 6.5%
18,N#CC1(Nc2ccccc2)CCN(Cc2ccccc2)CC1,inactive: 8.7%
19,COc1ccc(Cl)cc1C(=O)NCC1(N2CCOCC2)CCCCC1,inactive: 7.6%
20,O=C(NCC1(N2CCCCC2)CCCCC1)c1ccc(=O)[nH]c1,inactive: -12.3%
21,CCCCn1nnnc1C(c1cccs1)N1CCC(n2c(=O)[nH]c3ccccc32)CC1 (stereo not drawn),inactive: 5%
22,CCCCn1nnnc1C(CC)N1CCC(n2c(=O)[nH]c3ccccc32)CC1 (stereo not drawn),inactive: 5.9%

row,SMILES,inhibition
1,O=C(NCC1(N2CCCCC2)CCCCC1)c1cccs1,inactive: -11%
2,COc1ccc(C(=O)NCC2(N3CCCCC3)CCCCC2)cc1,inactive: -11.8%
3,CCC(c1nnnn1C1CCCC1)N1CCC(n2c(=O)[nH]c3ccccc32)CC1 (stereo not drawn),inactive: 2.3%
4,COc1ccc(C(=O)NCC2(N3CCCCC3)CCCCC2)c(OC)c1OC,inactive: -10%
5,CC(C)(C)OC(=O)N1CCC(N(C(=O)c2ccccc2)c2ccc(F)cc2)CC1,inactive: 1.7%
6,CSc1ccccc1C(=O)NCC1(N2CCCCC2)CCCCC1,inactive: -7.5%
7,Cc1cccc(NC2(C#N)CCN(Cc3ccccc3)CC2)c1,inactive: -1.8%
8,O=c1[nH]c2ccccc2n1C1CCN(C(c2ccccc2)c2nnnn2C2CCCCC2)CC1 (stereo not drawn),inactive: 4.6%
9,O=c1[nH]c2ccccc2n1C1CCN(C(c2cccc3ccccc23)c2nnnn2C2CCCC2)CC1 (stereo not drawn),inactive: 18.7%
10,COc1cc(C(=O)NCC2(N(C)C)CCCCC2)ccc1OC(F)F,inactive: 8.2%
11,CCOC(=O)N1CCC(Nc2cccc(C)c2)CC1,inactive: 5.5%
12,CCOc1ccc(C)cc1CN(CCCl)CCCl,inactive: 9.6%
13,CC(C)(C)n1nnnc1C(c1ccccc1)N1CCC(n2c(=O)[nH]c3ccccc32)CC1 (stereo not drawn),inactive: -7.2%
14,O=C1CCN(Cc2ccccc2)CC1,inactive: -12.4%
15,O=C(NCC1(N2CCCCC2)CCCCC1)c1ccc(F)cc1,inactive: 0.2%
16,CCCCn1nnnc1C(c1cc2ccccc2o1)N1CCC(n2c(=O)[nH]c3ccccc32)CC1 (stereo not drawn),inactive: 12.6%
17,O=P1(N(CCCl)CCCl)SCCCS1,inactive: -2.8%
18,CCCCOc1ccc(C(=O)NCC2(N3CCOCC3)CCCCC2)cc1,inactive: -17.3%
19,COc1ccc(NC2CCN(CCc3ccccc3)CC2)c(OC)c1,inactive: -1.8%
20,CCOC(=O)N1CCC(Nc2ccc(F)cc2)CC1,inactive: -6.4%
